Measured values taken from publication PMC6971430, “Manipulation of the dually thermoresponsive behavior of peptide‐based vesicles through modification of collagen‐like peptide domains” (Bioengineering & Translational Medicine, 2019).

Key:
N3-(GPO)6GG = test: circular dichroism spectroscopy; free CLP peptides, 0.35 mM in HPLC grade water (pH 6.5 at 4°C), 0.2 cm cuvette; wavelength scans at 4 and 80°C and melting scans; monomers to triple helix
N3-(GPO)7GG = test: as above

Q: For N3-(GPO)6GG (peptide), which stoichiometry N (N3-(GPO)6GG) is on record?
A: Its stoichiometry N is 3.

Q: For N3-(GPO)7GG (peptide), which stoichiometry N (N3-(GPO)7GG) is on record?
A: Its stoichiometry N is 3.
